Measured values: paper PMC9293909 (Nature Communications, 2022)

Protein sequences, listed by entry. Tags and fused reporters are not part of them.
UniProt P30542, whole entry: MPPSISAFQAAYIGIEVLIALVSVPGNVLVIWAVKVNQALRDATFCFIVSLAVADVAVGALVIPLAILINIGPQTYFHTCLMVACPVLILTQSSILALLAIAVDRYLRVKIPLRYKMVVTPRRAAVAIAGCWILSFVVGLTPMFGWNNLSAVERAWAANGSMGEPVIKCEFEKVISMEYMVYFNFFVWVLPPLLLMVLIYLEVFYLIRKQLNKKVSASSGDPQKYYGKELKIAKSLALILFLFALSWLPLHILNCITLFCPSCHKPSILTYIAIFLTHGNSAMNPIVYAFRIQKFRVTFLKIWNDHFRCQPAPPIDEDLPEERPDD
UniProt P0DMS8, whole entry: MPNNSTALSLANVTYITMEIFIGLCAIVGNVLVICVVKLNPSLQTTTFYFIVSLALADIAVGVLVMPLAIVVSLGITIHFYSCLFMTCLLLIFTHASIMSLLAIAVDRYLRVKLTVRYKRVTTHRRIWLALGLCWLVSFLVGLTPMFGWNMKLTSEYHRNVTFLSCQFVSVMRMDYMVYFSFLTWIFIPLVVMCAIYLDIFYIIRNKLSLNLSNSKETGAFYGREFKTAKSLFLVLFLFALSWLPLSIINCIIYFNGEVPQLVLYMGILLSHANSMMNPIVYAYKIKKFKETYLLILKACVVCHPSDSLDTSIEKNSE
UniProt P25099, whole entry: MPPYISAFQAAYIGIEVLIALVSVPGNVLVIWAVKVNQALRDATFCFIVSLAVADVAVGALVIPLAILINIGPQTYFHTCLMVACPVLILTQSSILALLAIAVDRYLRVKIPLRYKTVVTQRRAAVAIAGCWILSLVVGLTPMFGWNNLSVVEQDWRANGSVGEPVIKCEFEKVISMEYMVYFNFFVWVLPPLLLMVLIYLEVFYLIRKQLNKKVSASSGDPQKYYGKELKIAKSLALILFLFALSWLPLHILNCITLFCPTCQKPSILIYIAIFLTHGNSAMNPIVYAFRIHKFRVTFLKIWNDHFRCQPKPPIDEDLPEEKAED

Key:
hA1R:Goa = hA1R:Goa (Homo sapiens, UniProt P30542); test: cAMP inhibition in PTX-treated CHO-K1-hA1R cells with PTX-insensitive Goa (incl. Schild analysis, bias); assay type: cell-based; set-up: host or cells: CHO-K1-hA1R (made in-house), PTX-treated; details: inhibition of forskolin-stimulated cAMP
hA1R:Gob = hA1R:Gob (Homo sapiens, UniProt P30542); test: cAMP inhibition in PTX-treated CHO-K1-hA1R cells with PTX-insensitive Gob; details: inhibition of forskolin-stimulated cAMP
hA3R = target: T1, hA3R (Homo sapiens, UniProt P0DMS8); test: cAMP inhibition at hA3R; assay type: cell-based; details: range of response as percentage of response to 10 μM forskolin
T1 construct: expressed in transfected cells; host or cells: CHO-K1

rA1R = target: T2, rA1R (Rattus norvegicus, UniProt P25099); test: cAMP inhibition at rA1R (transiently transfected CHO-K1); assay type: cell-based; details: range of response as percentage of response to 10 μM forskolin
T2 construct: expressed in transfected cells; host or cells: CHO-K1 (transient, 48 h)

[1] = target: T3, β-arrestin2 recruitment to hA3R (Homo sapiens, UniProt P0DMS8); test: BRET β-arrestin2 recruitment to A3R, HEK 293T; assay type: cell-based
T3 construct: expressed in transfected cells; host or cells: HEK 293T (ATCC CRL-3216), transient

hA1R:Gi2 = hA1R:Gi2 (Homo sapiens, UniProt P30542); test: cAMP inhibition in PTX-treated CHO-K1-hA1R cells with PTX-insensitive Gi2; assay type: cell-based; details: inhibition of forskolin-stimulated cAMP
hA1R = hA1R (Homo sapiens, UniProt P30542); test: cAMP inhibition in CHO-K1-hA1R cells (forskolin co-stimulation); details: range of response as percentage of response to 10 μM forskolin

CCNC(=O)[C@H]1O[C@@H](n2cnc3c(N)ncnc32)[C@H](O)[C@@H]1O [NECA, 5′-(N-Ethylcarboxamido) adenosine]
Emax Goa (hA1R:Goa): -20.94%
Emax Gob (hA1R:Gob): -10.06%
Range hA3R (hA3R): 33.43 ± 3.1%
Range rA1R (rA1R): 37.17 ± 5.49%
β-arrestin2 recruitment by the A3R [1]: β-arrestin2 recruitment
Emax Gi2 (hA1R:Gi2): -8.08%
Range hA1R (hA1R): 34.33 ± 4.0%
